Earlier results in article PMC9655119, “Sustained Activation of CLR/RAMP Receptors by Gel-Forming Agonists” (International Journal of Molecular Sciences, 2022).
Like-named read-outs stand apart in the source and are kept apart here.

Conditions: cited from earlier work
Description: Because the rate of dissociation of hydrogels depends on electrostatic interactions among the monomeric peptide, solvent, and solutes, the release of Analog C-6 from the gel solution is likely affected by various environmental factors. Therefore, it is important to characterize the release kinetics of the analog gel in vivo before we can reasonably design studies to investigate its efficacy in animals. […] In the th ...

Question: Which half-life does the source give for adrenomedullin [ADM] here?
Answer: ~ 20 min

Question: And the half-life (stated as known, no reference given)?
Answer: 20 to 30 min
